This data set in a line: Single Dose Pharmacokinetics, oral bioavailability. The class given is in vivo, Sprague-Dawley rats. As to conditions: Rat p.o. dose, 5 mpk.

Consider `CC(c1ccccc1)n1cc(-c2ccc(N3CCc4cccc(C(=O)Nc5nc6ccccc6s5)c4C3)nc2C(=O)O)cn1` (stereo not shown) [Example 5, 6-[8-(1,3-benzothiazol-2-ylcarbamoyl)-3,4-dihydroisoquinolin-2(1H)-yl]-3-[1-(1-phenylethyl)-1H-pyrazol-4-yl]pyridine-2-carboxylic acid], for which the “F (%), dose” value is on record as 19, 5 mpk %. Next, `Cc1nn(Cc2ccccc2)c(C)c1-c1ccc(N2CCc3cccc(C(=O)Nc4nc5ccccc5s4)c3C2)nc1C(=O)O` [Example 12, 6-[8-(1,3-benzothiazol-2-ylcarbamoyl)-3,4-dihydroisoquinolin-2(1H)-yl]-3-(1-benzyl-3,5-dimethyl-1H-pyrazol-4-yl)pyridine-2-carboxylic acid]: 29, 5 mpk %. On to `Cc1nn(Cc2ccccc2)cc1-c1ccc(N2CCc3cccc(C(=O)Nc4nc5ccccc5s4)c3C2)nc1C(=O)O` [Example 19, 6-[8-(1,3-benzothiazol-2-ylcarbamoyl)-3,4-dihydroisoquinolin-2(1H)-yl]-3-(1-benzyl-3-methyl-1H-pyrazol-4-yl)pyridine-2-carboxylic acid], for which the “F (%), dose” value is on record as 22, 5 mpk %. Take `Cc1c(-c2ccc(N3CCc4cccc(C(=O)Nc5nc6ccccc6s5)c4C3)nc2C(=O)O)cnn1Cc1ccccc1` [Example 20, 6-[8-(1,3-benzothiazol-2-ylcarbamoyl)-3,4-dihydroisoquinolin-2(1H)-yl]-3-(1-benzyl-5-methyl-1H-pyrazol-4-yl)pyridine-2-carboxylic acid]: the “F (%), dose” value was 17, 5 mpk %. The value for `Cc1c(-c2ccc(N3CCc4cccc(C(=O)Nc5nc6ccccc6s5)c4C3)nc2C(=O)O)cnn1CC1CCCC1` [Example 63, 6-[8-(1,3-benzothiazol-2-ylcarbamoyl)-3,4-dihydroisoquinolin-2(1H)-yl]-3-[1-(cyclopentylmethyl)-5-methyl-1H-pyrazol-4-yl]pyridine-2-carboxylic acid] was 20, 5 mpk %. The value for `COCCC1(Cn2cc(-c3ccc(N4CCc5cccc(C(=O)Nc6nc7ccccc7s6)c5C4)nc3C(=O)O)cn2)CCCCC1` [Example 88, 6-[8-(1,3-benzothiazol-2-ylcarbamoyl)-3,4-dihydroisoquinolin-2(1H)-yl]-3-(1-{[1-(2-methoxyethyl)cyclohexyl]methyl}-1H-pyrazol-4-yl)pyridine-2-carboxylic acid] was 23, 5 mpk %.

`COCCCC1(Cn2ncc(-c3ccc(N4CCc5cccc(C(=O)Nc6nc7ccccc7s6)c5C4)nc3C(=O)O)c2C)CCCCC1` [Example 97, 6-[8-(1,3-benzothiazol-2-ylcarbamoyl)-3,4-dihydroisoquinolin-2(1H)-yl]-3-(1-{[1-(3-methoxypropyl)cyclohexyl]methyl}-5-methyl-1H-pyrazol-4-yl)pyridine-2-carboxylic acid]: the “F (%), dose” value was 33, 5 mpk %. Turning to `O=C(Nc1nc2ccccc2s1)c1cccc2c1CN(c1ccc(-c3cccc(Cc4ccccc4)c3)c(C(=O)O)n1)CC2` [Example 106, 6-[8-(1,3-benzothiazol-2-ylcarbamoyl)-3,4-dihydroisoquinolin-2(1H)-yl]-3-(3-benzylphenyl)pyridine-2-carboxylic acid], the “F (%), dose” value is recorded as 24, 5 mpk %. Next, `O=C(Nc1nc2ccccc2s1)c1cccc2c1CN(c1ccc(-c3cn(Cc4ccccc4)nn3)c(C(=O)O)n1)CC2` [Example 122, 6-[8-(1,3-benzothiazol-2-ylcarbamoyl)-3,4-dihydroisoquinolin-2(1H)-yl]-3-(1-benzyl-1H-1,2,3-triazol-4-yl)pyridine-2-carboxylic acid]: 40, 5 mpk %; `COCCC1(Cn2ncc(-c3ccc(N4CCc5cccc(C(=O)Nc6nc7ccccc7s6)c5C4)nc3C(=O)O)c2C)CCCC(C)(C)C1` (stereo not shown) [Example 146, 6-[8-(1,3-benzothiazol-2-ylcarbamoyl)-3,4-dihydroisoquinolin-2(1H)-yl]-3-(1-{[1-(2-methoxyethyl)-3,3-dimethylcyclohexyl]methyl}-5-methyl-1H-pyrazol-4-yl)pyridine-2-carboxylic acid]: 16, 5 mpk %.
